# Test results as given in PubChem BioAssay AID1347148 (WashU High Throughput Screening Center, 2019).
# The list shows a part of the results, in another mix than the full data. Activity calls are given as the source filed them. The rule behind the calls is not given here.
# Assay: inhibitors of Cryptococcus chitosan production, flow cytometry, Cibacron Brilliant Red staining (AID 1347148);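 note: compound exposure lasted three days at 37 degrees C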
# Settings: Cryptococcus neoformans chitosan, at 135.4 µM, stronger effect = lower value
smiles,measurement,value
CN(C(=O)Cc1ccc(Cl)c(Cl)c1)[C@H]1CCCC[C@@H]1N1CCCC1,fold fluorescence,inactive: 11.8
